Data: PubChem BioAssay (Tox21)
This is a selection; strong and weak results do not stand in their true shares. Results filed as inconclusive are left out. Some structures have more than one record in an assay (separate samples or runs), and their calls can disagree. Active and inactive are the calls of the source. Unless noted, the call rests on the fitted dose curve.

Protein sequences, listed by entry. Tags and fused reporters are not part of them. Lines headed by an entry give the natural chain unless they say otherwise; changes in a name come on top.
UniProt P03372, whole entry, looked up: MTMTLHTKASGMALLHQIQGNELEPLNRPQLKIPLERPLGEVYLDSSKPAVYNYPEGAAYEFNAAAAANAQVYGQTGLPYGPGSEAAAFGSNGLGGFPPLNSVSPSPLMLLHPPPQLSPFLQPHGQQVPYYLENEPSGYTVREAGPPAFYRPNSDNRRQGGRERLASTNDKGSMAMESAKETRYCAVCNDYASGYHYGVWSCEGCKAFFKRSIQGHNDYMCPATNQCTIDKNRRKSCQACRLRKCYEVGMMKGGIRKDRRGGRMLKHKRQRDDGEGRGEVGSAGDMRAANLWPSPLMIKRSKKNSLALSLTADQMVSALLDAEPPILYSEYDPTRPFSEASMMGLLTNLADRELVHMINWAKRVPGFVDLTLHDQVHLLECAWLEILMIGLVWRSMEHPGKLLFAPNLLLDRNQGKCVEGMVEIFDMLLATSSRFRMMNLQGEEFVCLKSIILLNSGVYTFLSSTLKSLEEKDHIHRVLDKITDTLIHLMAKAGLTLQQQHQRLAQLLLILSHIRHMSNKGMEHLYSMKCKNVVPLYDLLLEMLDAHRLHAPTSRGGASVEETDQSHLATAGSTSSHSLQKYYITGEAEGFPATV
UniProt P16473, whole entry, looked up: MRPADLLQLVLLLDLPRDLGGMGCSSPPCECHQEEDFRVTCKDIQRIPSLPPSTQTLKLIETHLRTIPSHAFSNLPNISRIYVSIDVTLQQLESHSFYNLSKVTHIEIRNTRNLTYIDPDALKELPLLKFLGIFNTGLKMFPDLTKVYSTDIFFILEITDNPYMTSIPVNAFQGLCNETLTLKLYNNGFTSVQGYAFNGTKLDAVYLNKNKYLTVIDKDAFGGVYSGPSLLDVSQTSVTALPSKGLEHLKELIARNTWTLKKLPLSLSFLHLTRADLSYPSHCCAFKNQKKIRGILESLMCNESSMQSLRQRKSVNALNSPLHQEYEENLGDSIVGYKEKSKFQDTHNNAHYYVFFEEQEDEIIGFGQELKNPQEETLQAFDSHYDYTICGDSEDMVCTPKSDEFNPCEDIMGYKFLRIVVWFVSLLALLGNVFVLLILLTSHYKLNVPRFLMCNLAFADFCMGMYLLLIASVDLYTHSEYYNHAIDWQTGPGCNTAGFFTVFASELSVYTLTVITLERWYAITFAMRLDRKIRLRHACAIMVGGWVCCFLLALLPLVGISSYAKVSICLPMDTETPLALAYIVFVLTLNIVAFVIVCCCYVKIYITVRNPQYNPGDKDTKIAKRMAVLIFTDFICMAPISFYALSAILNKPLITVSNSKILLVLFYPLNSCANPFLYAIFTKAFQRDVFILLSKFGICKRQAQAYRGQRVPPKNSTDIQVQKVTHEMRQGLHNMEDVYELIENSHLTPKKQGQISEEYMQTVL
UniProt O75469: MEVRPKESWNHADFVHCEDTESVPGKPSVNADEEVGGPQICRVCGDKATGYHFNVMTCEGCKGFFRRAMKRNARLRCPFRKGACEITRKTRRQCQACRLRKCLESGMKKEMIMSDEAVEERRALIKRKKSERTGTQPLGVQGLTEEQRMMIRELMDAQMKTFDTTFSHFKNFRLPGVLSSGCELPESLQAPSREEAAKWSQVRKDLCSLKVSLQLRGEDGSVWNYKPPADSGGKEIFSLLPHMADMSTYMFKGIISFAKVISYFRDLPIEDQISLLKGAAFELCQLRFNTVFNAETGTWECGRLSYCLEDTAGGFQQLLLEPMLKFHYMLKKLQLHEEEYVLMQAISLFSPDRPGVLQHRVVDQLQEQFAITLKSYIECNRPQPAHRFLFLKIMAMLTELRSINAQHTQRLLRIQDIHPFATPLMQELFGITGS
UniProt P22303: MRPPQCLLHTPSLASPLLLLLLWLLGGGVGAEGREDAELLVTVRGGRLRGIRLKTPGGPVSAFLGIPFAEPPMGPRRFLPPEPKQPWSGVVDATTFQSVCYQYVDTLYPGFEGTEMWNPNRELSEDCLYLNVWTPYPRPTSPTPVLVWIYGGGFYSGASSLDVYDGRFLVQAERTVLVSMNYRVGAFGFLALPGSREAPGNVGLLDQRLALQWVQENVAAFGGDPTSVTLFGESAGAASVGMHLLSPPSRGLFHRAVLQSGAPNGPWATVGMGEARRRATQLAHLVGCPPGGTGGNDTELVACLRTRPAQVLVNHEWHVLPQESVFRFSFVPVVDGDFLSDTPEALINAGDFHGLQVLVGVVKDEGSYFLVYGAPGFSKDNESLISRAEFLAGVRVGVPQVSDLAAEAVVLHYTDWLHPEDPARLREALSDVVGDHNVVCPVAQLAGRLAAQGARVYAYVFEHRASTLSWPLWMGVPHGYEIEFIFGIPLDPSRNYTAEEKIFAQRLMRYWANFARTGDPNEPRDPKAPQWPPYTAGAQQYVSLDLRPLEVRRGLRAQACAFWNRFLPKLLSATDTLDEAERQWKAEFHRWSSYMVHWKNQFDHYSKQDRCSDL
UniProt P10635, whole entry, looked up: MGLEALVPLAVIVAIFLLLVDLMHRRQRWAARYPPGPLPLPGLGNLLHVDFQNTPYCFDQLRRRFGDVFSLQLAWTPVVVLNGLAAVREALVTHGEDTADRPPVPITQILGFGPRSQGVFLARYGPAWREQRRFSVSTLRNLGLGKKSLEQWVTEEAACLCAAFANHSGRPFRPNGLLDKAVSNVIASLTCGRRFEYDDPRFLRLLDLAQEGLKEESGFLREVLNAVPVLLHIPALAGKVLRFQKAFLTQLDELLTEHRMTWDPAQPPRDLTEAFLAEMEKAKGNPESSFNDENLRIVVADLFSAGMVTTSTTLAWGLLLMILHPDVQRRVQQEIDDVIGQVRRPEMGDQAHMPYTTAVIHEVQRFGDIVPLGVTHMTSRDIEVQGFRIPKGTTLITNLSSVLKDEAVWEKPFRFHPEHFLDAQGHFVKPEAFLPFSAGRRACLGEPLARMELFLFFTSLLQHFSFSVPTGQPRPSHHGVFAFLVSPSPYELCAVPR
UniProt P10275: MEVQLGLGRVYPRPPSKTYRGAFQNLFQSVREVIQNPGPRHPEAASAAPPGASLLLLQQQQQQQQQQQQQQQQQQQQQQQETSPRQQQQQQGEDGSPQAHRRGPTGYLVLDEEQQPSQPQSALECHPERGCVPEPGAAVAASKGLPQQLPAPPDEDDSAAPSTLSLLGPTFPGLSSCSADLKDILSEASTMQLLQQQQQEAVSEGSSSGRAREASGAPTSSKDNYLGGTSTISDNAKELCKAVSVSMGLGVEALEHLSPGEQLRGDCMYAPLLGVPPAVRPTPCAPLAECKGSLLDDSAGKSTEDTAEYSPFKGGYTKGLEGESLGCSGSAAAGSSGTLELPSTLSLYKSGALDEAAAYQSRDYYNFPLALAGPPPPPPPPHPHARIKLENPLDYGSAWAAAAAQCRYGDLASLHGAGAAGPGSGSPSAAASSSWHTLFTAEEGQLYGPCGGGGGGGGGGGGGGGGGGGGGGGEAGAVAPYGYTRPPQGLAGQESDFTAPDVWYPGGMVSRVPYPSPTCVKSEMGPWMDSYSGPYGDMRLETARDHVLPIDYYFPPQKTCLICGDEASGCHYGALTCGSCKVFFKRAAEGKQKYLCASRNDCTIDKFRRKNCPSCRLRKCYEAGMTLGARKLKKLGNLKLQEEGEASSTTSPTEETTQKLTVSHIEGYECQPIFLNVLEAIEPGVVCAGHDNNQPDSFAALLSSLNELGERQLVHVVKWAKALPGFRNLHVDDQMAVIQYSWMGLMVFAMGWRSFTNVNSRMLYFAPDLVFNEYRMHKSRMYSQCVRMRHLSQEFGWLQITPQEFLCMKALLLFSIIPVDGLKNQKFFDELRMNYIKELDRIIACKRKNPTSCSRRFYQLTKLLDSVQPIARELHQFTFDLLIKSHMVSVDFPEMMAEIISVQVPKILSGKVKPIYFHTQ
UniProt P06401: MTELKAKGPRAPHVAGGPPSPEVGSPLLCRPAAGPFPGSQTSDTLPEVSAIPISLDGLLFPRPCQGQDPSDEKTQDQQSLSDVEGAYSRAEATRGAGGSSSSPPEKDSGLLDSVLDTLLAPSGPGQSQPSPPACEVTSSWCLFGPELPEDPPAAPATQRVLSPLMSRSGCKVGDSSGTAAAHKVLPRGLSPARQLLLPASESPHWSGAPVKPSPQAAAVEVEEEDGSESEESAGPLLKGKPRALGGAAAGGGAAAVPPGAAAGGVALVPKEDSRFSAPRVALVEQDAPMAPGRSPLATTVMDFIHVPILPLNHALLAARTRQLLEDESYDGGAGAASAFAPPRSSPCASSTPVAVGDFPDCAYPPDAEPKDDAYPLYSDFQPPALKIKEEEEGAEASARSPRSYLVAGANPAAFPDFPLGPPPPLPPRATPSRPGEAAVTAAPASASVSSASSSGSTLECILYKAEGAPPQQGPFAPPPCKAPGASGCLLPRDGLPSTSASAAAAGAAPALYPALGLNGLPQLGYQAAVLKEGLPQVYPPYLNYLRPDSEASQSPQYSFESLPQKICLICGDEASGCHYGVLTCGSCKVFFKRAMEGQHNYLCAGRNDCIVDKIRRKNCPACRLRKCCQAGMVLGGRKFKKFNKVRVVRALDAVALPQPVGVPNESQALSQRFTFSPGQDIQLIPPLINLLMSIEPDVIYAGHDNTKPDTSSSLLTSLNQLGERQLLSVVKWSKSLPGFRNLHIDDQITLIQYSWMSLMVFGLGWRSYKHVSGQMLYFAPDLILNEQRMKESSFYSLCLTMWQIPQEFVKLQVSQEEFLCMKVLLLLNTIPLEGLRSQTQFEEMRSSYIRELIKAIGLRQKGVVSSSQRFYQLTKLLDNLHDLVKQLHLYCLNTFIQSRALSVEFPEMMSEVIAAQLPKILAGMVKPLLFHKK
UniProt P34981: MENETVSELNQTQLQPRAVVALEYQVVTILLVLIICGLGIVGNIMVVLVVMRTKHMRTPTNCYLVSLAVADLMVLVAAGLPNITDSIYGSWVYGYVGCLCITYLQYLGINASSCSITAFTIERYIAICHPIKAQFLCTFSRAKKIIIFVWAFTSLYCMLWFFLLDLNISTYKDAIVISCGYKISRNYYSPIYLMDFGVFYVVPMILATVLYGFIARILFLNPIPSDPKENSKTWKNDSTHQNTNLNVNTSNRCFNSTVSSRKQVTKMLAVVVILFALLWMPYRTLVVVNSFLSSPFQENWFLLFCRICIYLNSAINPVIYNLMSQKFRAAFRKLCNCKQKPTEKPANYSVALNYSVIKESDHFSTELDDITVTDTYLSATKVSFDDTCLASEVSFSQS

How the values were obtained:
[1] = target: Estrogen receptor (Homo sapiens) (UniProt P03372); assay: qHTS assay to identify small molecule agonists of the estrogen receptor alpha (ER-alpha) signaling pathway in the presence of an antagonist (AID 1259383); conditions: VM7Luc4E2 cells, ERE-luciferase, +ICI-182,780, 22 h; at 92.4 µM (top of the series) unless noted; further: top concentration of the series differs between compounds; nearly all actives have a fitted effect of over 15% in size
[2] = qHTS assay to identify small molecule agonists or antagonists of the thyroid stimulating hormone receptor (TSHR) signaling pathway - wild type cell line counter screen (AID 1259384); conditions: HEK293 wild type, cAMP HTRF counter-screen, stronger effect = higher value; at 92.4 µM (top of the series) unless noted
Outline: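 Wild-type Hek293 cells, 800/well, 18 h at 37C, then compound with Ro20-1724 for 30 min RT. cAMP by HTRF (cAMP-d2/anti-cAMP cryptate), 1 h RT, fluorescence read. 15 concentrations, triplicates.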

[3] = target: Thyrotropin receptor (Homo sapiens) (UniProt P16473); assay: qHTS assay to identify small molecule antagonists of the thyroid stimulating hormone receptor (TSHR) signaling pathway (AID 1259385); conditions: TSHR-HEK293 cAMP HTRF, TSH-stimulated antagonist mode; at 92.4 µM (top of the series) unless noted; further: nearly all actives have a fitted effect of over 20% in size
[4] = target: Nuclear receptor subfamily 1 group I member 2 (Homo sapiens) (UniProt O75469); assay: Human pregnane X receptor (PXR) small molecule agonists, qHTS assay (AID 1346982; active means well fitted curve in the direction sought with a large enough effect in the repeat runs; an effect the other way counts as inactive or inconclusive; further: nearly all actives have a fitted effect of over 35% in size; further: potency means the concentration at half of the fitted maximal effect)
Outline: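 Agonist mode: luminescence from ONE-Glo after 24 h compound exposure at 37C in HepG2 cells carrying hPXR-responsive CYP3A4 luciferase, plated in charcoal-stripped serum medium 5 h beforehand.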

[5] = target: Acetylcholinesterase (Homo sapiens) (UniProt P22303); assay: Acetylcholinesterase (AChE) small molecule antagonists: colormetric cell-based qHTS assay (AID 1347395); further: nearly all actives have a fitted effect of over 30% in size
Outline: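 SH-SY5Y cells attached overnight, exposed to compound 30 min at 37 C, then given DTNB/acetylthiocholine; after 90 min at 37 C, colorimetric thiocholine read gives cellular AChE activity.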

[6] = target: Acetylcholinesterase (Homo sapiens) (UniProt P22303); assay: Acetylcholinesterase (AChE) small molecule antagonists: enzyme-based qHTS assay (AID 1347397); conditions: at 115 µM (top of the series) unless noted; further: nearly all actives have a fitted effect of over 55% in size
Outline: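 Colorimetric DTNB read-out of thiocholine released from acetylthiocholine by recombinant human AChE (50 mU/mL as dispensed). Compounds were preincubated 30 min at RT before substrate/DTNB addition, with a 10 min RT reaction.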

[7] = target: Acetylcholinesterase (Homo sapiens) (UniProt P22303); assay: Acetylcholinesterase (AChE) small molecule antagonists: enzyme-based qHTS assay with human liver microsomes (AID 1347399); conditions: Potency: qHTS inhibition; further: nearly all actives have a fitted effect of over 60% in size
Outline: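 Recombinant human AChE (50 mU/mL in the enzyme mix) and human liver microsomes (0.25 mg/mL final) were preincubated with compound and NADPH (0.25 mg/mL final) for 30 min at 37 C. Acetylthiocholine/DTNB was then added; thiocholine was read colorimetrically after 10 min at room temperature.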

[8] = target: Cytochrome P450 2D6 (Homo sapiens) (UniProt P10635); assay: Cytochrome P450 Family 2 Subfamily D Member 6 (CYP2D6) small molecule antagonists: luciferase reporter qHTS assay (AID 1671196; active means well fitted curve in the direction sought with a large enough effect in the repeat runs; an effect the other way counts as inactive or inconclusive; further: nearly all actives have a fitted effect of over 50% in size; further: potency means the concentration at half of the fitted maximal effect)
Outline: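 CYP2D6 activity was followed as luminescence from its luciferin product after a 1 h NADPH-driven reaction at room temperature. Enzyme-substrate mix and compound were pre-incubated for 10 min, and the signal was read 20 min after adding detection reagent.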

[9] = qHTS assay to identify small molecule agonists of the estrogen receptor beta (ER-beta) signaling pathway - cell viability counter screen (AID 1259380; active means well fitted curve in the direction sought with a large enough effect in the repeat runs; an effect the other way counts as inactive or inconclusive; further: nearly all actives have a fitted effect of over 30% in size); conditions: ER-beta-bla HEK293T viability, CellTiter-Glo luminescence, 16 h; at 92.4 µM (top of the series) unless noted
Outline: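 Cell viability counter screen: CellTiter-Glo luminescence (30 min, room temperature) measured in the same wells as the beta-lactamase readout, after 16 hr compound exposure at 37C of ER-beta-bla HEK293T cells in 2% charcoal-stripped FBS medium.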

[10] = target: Androgen receptor (Homo sapiens) (UniProt P10275); assay: qHTS assay to identify small molecule agonists of the androgen receptor (AR) signaling pathway in the presence of an antagonist (AID 1259381); conditions: MDA-kb2 MMTV-luciferase, AR agonist + nilutamide, 16 h; further: nearly all actives have a fitted effect of over 15% in size
[11] = qHTS assay to identify small molecule antagonists of the estrogen receptor beta (ER-beta) signaling pathway - cell viability counter screen (AID 1259382; active means well fitted curve in the direction sought with a large enough effect in the repeat runs; an effect the other way counts as inactive or inconclusive;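 further: HEK293T cells carrying ER-beta-UAS-bla reporter stimulated with estradiol; nearly all actives have a fitted effect of over 55% in size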); conditions: ER-beta-UAS-bla HEK293T viability, CellTiter-Glo luminescence, 16 h; at 92.4 µM (top of the series) unless noted
Outline: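 Cytotoxicity was measured in the same wells by CellTiter-Glo luminescence after 30 min at room temperature. Cells were ER-beta-bla HEK293T in charcoal-stripped serum, given compound together with 1 nM E2 and incubated 16 h at 37C.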

[12] = qHTS assay to identify small molecule agonists of the estrogen receptor alpha (ER-alpha) signaling pathway in the presence of an antagonist - cell viability counter screen (AID 1259386; active means well fitted curve in the direction sought with a large enough effect in the repeat runs; an effect the other way counts as inactive or inconclusive; further: nearly all actives have a fitted effect of over 30% in size)
Outline: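 Compounds tested at 15 concentrations for 22 h at 37C alongside 10.0nM (final) ICI-182,780 antagonist, in VM7Luc4E2 cells grown in phenol red-free, charcoal-stripped medium. Viability read by CellTiter-Fluor fluorescence after 1 h reagent incubation.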

[13] = target: Progesterone receptor (Homo sapiens) (UniProt P06401); assay: qHTS assay to identify small molecule antagonists of the progesterone receptor (PR) signaling pathway (AID 1346795; active means well fitted inhibition curve with a large enough effect in the signal ratio in the repeat runs, not every such curve was filed as active; the % refers to the signal ratio)
Outline: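 PR-UAS-bla HEK293T cells with beta-lactamase reporter under UAS control, in 2% charcoal-stripped FBS, treated with compounds plus 1 nM promegestone (R5020, final) for 16 hr at 37C. Read-out: FRET beta-lactamase substrate fluorescence after 2 hr at room temperature.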

[14] = qHTS assay to identify small molecule agonists of the progesterone receptor (PR) signaling pathway - cell viability counter screen (AID 1346799); further: nearly all actives have a fitted effect of over 45% in size
Outline: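 Counter screen in the PR-UAS-bla HEK293T wells (2% charcoal-stripped FBS, 16 h compound exposure at 37 C) after the bla read. CellTiter-Glo added, 30 min at room temperature, luminescence read as cell viability.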

[15] = qHTS assay to identify small molecule agonists of the TGF-beta/Smad signaling pathway (AID 1346859; active means well fitted activation curve with a large enough effect in the signal ratio in the repeat runs, not every such curve was filed as active; the % refers to the signal ratio); conditions: SBE-bla HEK293T, TGF-beta/Smad beta-lactamase reporter, 5 h; at 76.8 µM (top of the series) unless noted
Outline: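 SBE-bla HEK293T cells plated overnight, then compound exposure for 5 h at 37 C. Beta-lactamase reporter read with LiveBLAzer B/G FRET substrate after 2 h at room temperature, fluorescence at 405 nm excitation, 460/530 nm emission.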

[16] = target: Thyrotropin-releasing hormone receptor (Homo sapiens) (UniProt P34981); assay: qHTS assay to identify small molecule antagonists of the thyrotropin-releasing hormone receptor (TRHR) signaling pathway (AID 1346877; active means well fitted inhibition curve with a large enough effect in the repeat runs, not every such curve was filed as active)
[17] = target: Thyrotropin-releasing hormone receptor (Homo sapiens) (UniProt P34981); assay: qHTS assay to identify small molecule agonists of the thyrotropin-releasing hormone receptor (TRHR) signaling pathway (AID 1346891); conditions: TRHR-HEK293 calcium fluorescence, agonist mode; at 57.6 µM (top of the series) unless noted;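 further: HEK293 cells expressing TRHR with calcium dye readout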
[18] = Caspase-3/7 induction in HepG2 cells by small molecules, qHTS assay (AID 1346978; active means well fitted curve in the direction sought with a large enough effect in the repeat runs; an effect the other way counts as inactive or inconclusive; further: nearly all actives have a fitted effect of over 15% in size); conditions: HepG2 caspase-3/7 activation, Caspase-Glo luminescence, 17 h; at 92.4 µM (top of the series) unless noted
Outline: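 Wild-type HepG2 cells, 2,000/well, settled 5 hr at 37 C and 5% CO2, then compound-treated for 17 hr; caspase-3/7 activity read by luminescent Caspase-Glo 3/7 after 30 min at room temperature.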

[19] = Caspase-3/7 induction in HepG2 cells by small molecules, qHTS cell viability counter screen (AID 1346981; active means well fitted curve in the direction sought with a large enough effect in the repeat runs; an effect the other way counts as inactive or inconclusive; further: nearly all actives have a fitted effect of over 30% in size)
Outline: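 CellTiter-Fluor fluorescence measured viability in the same wells used for Caspase-Glo 3/7. HepG2 (wild type) at 2,000 cells/well were pre-incubated 5 hr, dosed, and given reagent at 16 hr, with 1 hr further at 37C.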

[20] = qHTS assay to identify small molecule antagonists of the progesterone receptor (PR) signaling pathway - cell viability counter screen (AID 1346798; active means well fitted curve in the direction sought with a large enough effect in the repeat runs; an effect the other way counts as inactive or inconclusive; further: nearly all actives have a fitted effect of over 50% in size)
Outline: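 PR-UAS-bla HEK293T cells, 3,000/well in 2% charcoal-stripped FBS medium, dosed with compounds plus R5020 agonist and incubated 16 h at 37C. Viability then measured in the same wells by CellTiter-Glo luminescence after 30 min at RT.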
On the % scale 0 is the no-effect control and ±100 the full control effect.

CCCCCCCCCCCCCC[P+](CCCCCC)(CCCCCC)CCCCCC
inactive: activation [1] -13.6% | cAMP activity change [2] 0.106% | activity change, negative = inhibition [3] -0.26% | Potency [5] | activity change, negative = inhibition [6] -10.5% | Potency [7]
active: Potency [4] 4.31 µM | Potency [8] 0.316 µM

CN(C(=O)Cc1ccc(Cl)c(Cl)c1)[C@H]1CC[C@@]2(CCCO2)C[C@@H]1N1CCCC1
inactive: activity change, negative = cytotoxicity [9] -9.34% [at 42.5 µM] | activation ([10]; at 42.5 µM (top of the series)) 3.02% | activity change, negative = cytotoxicity [11] -1.68% [at 42.5 µM] | activation [1] -2.65% [at 42.5 µM] | Potency [12] | Potency [13] | Potency [14] | activation [15] -3.19% [at 35.3 µM] | Potency [16] | activation [17] 0.303% [at 26.5 µM] | caspase activation [18] 0.994% [at 42.5 µM] | Potency [19] | Potency [5] | activity change, negative = inhibition [6] 0.415% [at 53 µM] | Potency [7]
active: Potency [8] 3.89 µM

ClP(Cl)c1ccccc1
inactive: activity change, negative = cytotoxicity [9] 1.78% | activity change, negative = cytotoxicity [11] -0.415% | activation [1] -2.32% | Potency [12] | Potency [13] | Potency [20] | Potency [14] | activation [15] -1.46% | Potency [16] | activation [17] -0.341% | caspase activation [18] 2.23% | Potency [19] | Potency [4] | Potency [5] | activity change, negative = inhibition [6] -3.3% | Potency [7] | Potency [8]

O=[P+](Oc1ccccc1)Oc1ccccc1
inactive: activity change, negative = cytotoxicity [9] 8.64% | activation ([10]; at 92.4 µM (top of the series)) 0.0204% | activity change, negative = cytotoxicity [11] 6.3% | activation [1] 0.819% | cAMP activity change [2] 2.36% | activity change, negative = inhibition [3] 0.692% | Potency [12] | Potency [13] | Potency [20] | Potency [14] | activation [15] -0.678% | Potency [16] | activation [17] -0.607% | caspase activation [18] -0.252% | Potency [19] | Potency [4] | Potency [5] | activity change, negative = inhibition [6] 1.71% | Potency [7] | Potency [8]

CN(N=O)C(=N)N[N+](=O)[O-]
inactive: activity change, negative = cytotoxicity [9] -1.34% | activity change, negative = cytotoxicity [11] -1.99% | cAMP activity change [2] -1.72% | Potency [12] | Potency [13] | Potency [20] | Potency [14] | activation [15] -0.0437% | Potency [16] | activation [17] 0.0103% | caspase activation [18] 0.963%

O=[N+]([O-])c1ccc(S(=O)(=O)O)c([N+](=O)[O-])c1
inactive: activity change, negative = cytotoxicity [9] 1.77% | activity change, negative = cytotoxicity [11] -5.98% | cAMP activity change [2] 3.18% | activity change, negative = inhibition [3] 4.96% | Potency [14] | activation [15] 2.26% | caspase activation [18] 0.512% | Potency [19] | Potency [4]

O=C(Cl)Oc1ccccc1
inactive: activity change, negative = cytotoxicity [9] -3% | activation ([10]; at 92.4 µM (top of the series)) 0.843% | activity change, negative = cytotoxicity [11] 1.14% | activation [1] 0.181% | cAMP activity change [2] 2.78% | activity change, negative = inhibition [3] -0.463% | Potency [12] | Potency [13] | Potency [20] | Potency [14] | activation [15] 0.655% | Potency [16] | activation [17] -0.302% | caspase activation [18] 2.02% | Potency [19] | Potency [4] | Potency [5] | activity change, negative = inhibition [6] 1.22% | Potency [7] | Potency [8]

CCOC(=O)Cl
inactive: activity change, negative = cytotoxicity [9] -0.0063% | activity change, negative = cytotoxicity [11] -0.61% | activation [1] 0.23% | cAMP activity change [2] 5.11% | Potency [12] | Potency [13] | Potency [20] | Potency [14] | activation [15] -1.58% | activation [17] -0.108% | caspase activation [18] -1.01% | Potency [19] | Potency [4] | Potency [5] | activity change, negative = inhibition [6] 2.86% | Potency [7]
